In patent publication US20140360376A1, “RECOVERY OF HIGHER ALCOHOLS FROM DILUTE AQUEOUS SOLUTIONS” (GEVO, INC., priority 2007, published 2014):

What was measured:
[1] = Phase separation of 7% butanol or isobutanol solutions by addition of glucose; assay type: physicochemical; conditions: 7% alcohol, glucose 20% (w/w), 25° C.
Experimental: (§1) This example illustrates the induction of phase separation of butanol or isobutanol in water solutions by addition of glucose. […] The light and heavy phases were analyzed for alcohol content for each experiment. All experiments were carried out at 25° C. The distribution coefficient was calculated by division of the concentration of butanol in the light phase by the concentration of butanol in the heavy phase.

[2] = Enrichment by glucose addition followed by contact with gasoline; assay type: physicochemical
Experimental: (§2) These solutions were then mixed with gasoline. The gasoline used was commercial grade with a 95 octane rating. At equilibrium, phase separation was observed forming an upper alcohol rich phase (light phase) and a lower alcohol lean phase (heavy phase). Both phases were analyzed for alcohol and water content. The distribution coefficient of the alcohol was calculated for each experiment by dividing the alcohol concentration in the light phase by the concentration in the heavy phase. The distribution coefficient for water was calculated accordingly. The Enrichment factor was calculated by dividing the distribution coefficient of alcohol by the distribution coefficient of water. All experiments were carried out at 24° C.

[3] = Phase separation of 4% butanol or isobutanol solutions by addition of calcium chloride; assay type: physicochemical; conditions: 4% alcohol, calcium chloride 15% (w/w), 25° C.
Experimental: as §1, with “calcium chloride addition.” for “addition of glucose.”

[4] = Enrichment of C3-C6 alcohols from aqueous solutions by contact with gasoline; assay type: physicochemical; conditions: 24° C.
Experimental: The gasoline used was commercial grade with a 95 octane rating. […] Both phases were analyzed for alcohol and water content. The distribution coefficient of the alcohol was calculated for each experiment by dividing the alcohol concentration in the light phase by the concentration in the heavy phase. Similarly, the distribution coefficient for water was calculated by dividing the water concentration in the light phase by the water concentration in the heavy phase. The enrichment factor was calculated by dividing the distribution coefficient of alcohol by the distribution coefficient of water. All experiments were carried out at 24° C.

[5] = Enrichment by calcium chloride addition followed by contact with gasoline; assay type: physicochemical
Experimental: as §2, with “observed,” for “observed”, “contents.” for “content.”, “phase.” for “phase. The distribution coefficient for water was calculated accordingly. The Enrichment factor was calculated by dividing the distribution coefficient of alcohol by the distribution coefficient of water.”

[6] = Enrichment of C3-C6 alcohols from aqueous solutions by contact with octane; assay type: physicochemical; conditions: 24° C., equilibrium
Experimental: Several aqueous solutions were prepared for each alcohol, differing in their alcohol concentrations, all of which were sub-saturated. […] The phase ratio between the aqueous solution and the solvent differed from one case to the other. Mixing was continued until equilibrium was reached. At equilibrium, phase separation could be observed forming an upper, alcohol-rich phase (light phase) and a lower, alcohol-lean phase (heavy phase). Both phases were analyzed for alcohol and water content. […] The water content of the organic phases was determined by the Karl-Fischer method. These analytical methods were also used for the analyses in the other examples.
The distribution coefficient of the alcohol was calculated for each experiment by dividing the alcohol concentration in the light phase by the alcohol concentration in the heavy phase. Similarly, the distribution coefficient for water was calculated by dividing the water concentration in the light phase by the water concentration in the heavy phase. The enrichment factor was calculated by dividing the distribution coefficient of alcohol by the distribution coefficient of water. In addition, the alcohol to water ratio (w/w) was calculated for the light phase.

[7] = n-butanol-water, cited from earlier work
[8] = gasoline, 20% (w/w) glucose, 24° C.
[9] = gasoline, 15% (w/w) calcium chloride, 24° C.

Substance: 1-butanol [BuOH]
- Alcohol in heavy phase (% w/w) [1]: 4.3 % w/w
- Alcohol in light phase (% w/w) [1]: 85 % w/w
- Concentration in the light phase compared to the starting solution [1]: approximately 12 fold
- Distribution coefficient ([1]; light/heavy phase): 20
- Increase of alcohol concentration in the gasoline phase in the presence of glucose ([2]; compared with example 3 (no glucose)): 1.6 fold
- Alcohol Wt % in heavy phase [2, 8]: 1.5 Wt %
- Alcohol Wt % in light phase [2, 8]: 1.9 Wt %
- Alcohol Da ([2]; light/heavy phase, gasoline, 20% (w/w) glucose, 24° C.): 1.27
- Alcohol in heavy phase (% w/w) [3]: 2.3 % w/w
- Alcohol in light phase (% w/w) [3]: 90 % w/w
- Concentration in the light phase compared to the starting solution [3]: approximately 23 fold
- Distribution coefficient ([3]; light/heavy phase): 39
- Alcohol Wt % in heavy phase ([4]; equilibrium): 3.8 Wt % and 0.55 Wt % and 1.64 Wt %
- Alcohol Wt % in light phase ([4]; equilibrium): 7.3 Wt % and 0.34 Wt % and 1.27 Wt %
- Enrichment factor ([4]; Da/Dw): 540 and >1000 and 770
- Increase of alcohol concentration in the gasoline phase in the presence of calcium chloride ([5]; compared with example 3 (no calcium chloride)): 3 fold
- Alcohol Wt % in heavy phase [5, 9]: 0.86 Wt %
- Alcohol Wt % in light phase [5, 9]: 2.6 Wt %
- Alcohol Da ([5]; light/heavy phase, gasoline, 15% (w/w) calcium chloride, 24° C.): 3.0
- Alcohol Wt % in heavy phase [6]: 4.6 Wt % and 0.65 Wt % and 1.8 Wt %
- Alcohol Wt % in light phase [6]: 2.5 Wt % and 0.11 Wt % and 0.29 Wt %
- Butanol Wt % in heavy phase ([7]; 5° C.): 9.55 Wt %
- Butanol Wt % in light phase ([7]; 5° C.): 80.38 Wt %
- Butanol Wt % in heavy phase ([7]; 10° C.): 8.91 Wt %
- Butanol Wt % in light phase ([7]; 10° C.): 80.33 Wt %
- Butanol Wt % in heavy phase ([7]; 15° C.): 8.21 Wt %
- Butanol Wt % in light phase ([7]; 15° C.): 80.14 Wt %
- Butanol Wt % in heavy phase ([7]; 20° C.): 7.81 Wt %
- Butanol Wt % in light phase ([7]; 20° C.): 79.93 Wt %
- Butanol Wt % in heavy phase ([7]; 25° C.): 7.35 Wt %
- Butanol Wt % in light phase ([7]; 25° C.): 79.73 Wt %
- Butanol Wt % in heavy phase ([7]; 30° C.): 7.08 Wt %
- Butanol Wt % in light phase ([7]; 30° C.): 79.38 Wt %
- Butanol Wt % in heavy phase ([7]; 35° C.): 6.83 Wt %
- Butanol Wt % in light phase ([7]; 35° C.): 78.94 Wt %
- Butanol Wt % in heavy phase ([7]; 40° C.): 6.6 Wt %
- Butanol Wt % in light phase ([7]; 40° C.): 78.59 Wt %
- Butanol Wt % in heavy phase ([7]; 50° C.): 6.46 Wt %
- Butanol Wt % in light phase ([7]; 50° C.): 77.58 Wt %
- Butanol Wt % in heavy phase ([7]; 60° C.): 5.62 Wt %
- Butanol Wt % in light phase ([7]; 60° C.): 76.38 Wt %
- Butanol Wt % in heavy phase ([7]; 70° C.): 6.73 Wt %
- Butanol Wt % in light phase ([7]; 70° C.): 74.79 Wt %
- Butanol Wt % in heavy phase ([7]; 80° C.): 6.89 Wt %
- Butanol Wt % in light phase ([7]; 80° C.): 73.53 Wt %

Several values for one entry are separate records, joined by “and”; a condition that tells them apart may be missing. Equal values may be shown once. Read-outs that look alike come from different tables or passages of the source.
